{"source": "patent US8697718B2", "about": "“Pack of medicinal tablets” (RB Pharmaceuticals Limited, priority 2007, dated 2014)", "origin": "cited, not measured here", "details": "stated in WO 2005/117838", "data": [{"substance": "buprenorphine hydrochloride", "values": [{"measurement": "degradation in acid or alkaline conditions", "value": "shows degradation"}]}]}
